The source of these data is patent US20180153850A1, “COMPOSITIONS AND METHODS FOR TREATMENT OF CANCER” (The Regents of the University of California, priority 2015, published 2018).

The chains behind the UniProt entries cited, without tags or fusion partners.
UniProt P08183, whole entry: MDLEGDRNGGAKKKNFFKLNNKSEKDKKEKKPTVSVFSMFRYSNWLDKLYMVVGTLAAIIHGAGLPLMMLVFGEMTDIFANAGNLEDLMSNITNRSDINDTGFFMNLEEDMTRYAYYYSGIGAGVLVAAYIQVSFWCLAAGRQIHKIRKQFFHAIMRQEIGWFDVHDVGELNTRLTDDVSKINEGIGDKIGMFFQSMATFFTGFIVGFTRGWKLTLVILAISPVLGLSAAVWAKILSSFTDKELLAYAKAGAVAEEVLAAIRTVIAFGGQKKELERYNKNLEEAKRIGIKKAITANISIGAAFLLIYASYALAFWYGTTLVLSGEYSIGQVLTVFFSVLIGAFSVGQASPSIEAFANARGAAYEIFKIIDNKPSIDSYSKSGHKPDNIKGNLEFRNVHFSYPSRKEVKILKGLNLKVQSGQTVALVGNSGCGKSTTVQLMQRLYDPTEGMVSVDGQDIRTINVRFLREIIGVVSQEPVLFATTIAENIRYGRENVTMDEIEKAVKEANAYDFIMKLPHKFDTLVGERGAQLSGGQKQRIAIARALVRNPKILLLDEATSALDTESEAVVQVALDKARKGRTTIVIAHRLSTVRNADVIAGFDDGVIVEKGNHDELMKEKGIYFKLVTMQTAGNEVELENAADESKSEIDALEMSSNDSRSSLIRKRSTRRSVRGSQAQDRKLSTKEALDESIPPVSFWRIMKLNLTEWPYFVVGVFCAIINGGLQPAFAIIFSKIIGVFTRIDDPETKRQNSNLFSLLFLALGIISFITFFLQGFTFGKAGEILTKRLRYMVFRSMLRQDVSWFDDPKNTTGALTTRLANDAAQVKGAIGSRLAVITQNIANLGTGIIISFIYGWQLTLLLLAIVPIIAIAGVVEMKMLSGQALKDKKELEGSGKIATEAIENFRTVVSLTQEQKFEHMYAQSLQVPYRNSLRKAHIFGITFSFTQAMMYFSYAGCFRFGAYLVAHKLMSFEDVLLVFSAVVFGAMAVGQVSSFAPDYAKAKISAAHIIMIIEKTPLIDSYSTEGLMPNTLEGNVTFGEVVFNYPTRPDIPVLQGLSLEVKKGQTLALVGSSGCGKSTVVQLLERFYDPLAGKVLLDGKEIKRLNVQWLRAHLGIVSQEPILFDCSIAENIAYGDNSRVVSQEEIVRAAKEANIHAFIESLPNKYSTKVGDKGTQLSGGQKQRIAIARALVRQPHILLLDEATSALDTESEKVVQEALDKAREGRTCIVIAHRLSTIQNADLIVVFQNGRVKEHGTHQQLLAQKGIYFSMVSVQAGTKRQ

SMILES strings stand for the structures.

The data set addresses recombinant human ABCB1 membranes (Homo sapiens, UniProt P08183). The conditions noted are these: 50 μM.

Turning to `CC(=O)O[C@@]12CO[C@@H]1C[C@H](O)[C@@]1(C)C(=O)[C@H](O)C3=C(C)[C@@H](OC(=O)[C@H](O)[C@@H](NC(=O)OC(C)(C)C)c4ccccc4)C[C@@](O)([C@@H](OC(=O)c4ccccc4)[C@H]21)C3(C)C` [docetaxel], the “stimulation of ABCB1 ATPase activity” value is reported as approximately 150%.
